Results on one compound are retold here after patent US9238644B2, “VEGFR3 inhibitors” (CANCER THERAPEUTICS CRC PTY LIMITED, priority 2012, dated 2016).

By UniProt entry, the sequences of proteins in these tests, tags left out. Residues count along the entry.
UniProt P35916, 25-1363 limits assumed: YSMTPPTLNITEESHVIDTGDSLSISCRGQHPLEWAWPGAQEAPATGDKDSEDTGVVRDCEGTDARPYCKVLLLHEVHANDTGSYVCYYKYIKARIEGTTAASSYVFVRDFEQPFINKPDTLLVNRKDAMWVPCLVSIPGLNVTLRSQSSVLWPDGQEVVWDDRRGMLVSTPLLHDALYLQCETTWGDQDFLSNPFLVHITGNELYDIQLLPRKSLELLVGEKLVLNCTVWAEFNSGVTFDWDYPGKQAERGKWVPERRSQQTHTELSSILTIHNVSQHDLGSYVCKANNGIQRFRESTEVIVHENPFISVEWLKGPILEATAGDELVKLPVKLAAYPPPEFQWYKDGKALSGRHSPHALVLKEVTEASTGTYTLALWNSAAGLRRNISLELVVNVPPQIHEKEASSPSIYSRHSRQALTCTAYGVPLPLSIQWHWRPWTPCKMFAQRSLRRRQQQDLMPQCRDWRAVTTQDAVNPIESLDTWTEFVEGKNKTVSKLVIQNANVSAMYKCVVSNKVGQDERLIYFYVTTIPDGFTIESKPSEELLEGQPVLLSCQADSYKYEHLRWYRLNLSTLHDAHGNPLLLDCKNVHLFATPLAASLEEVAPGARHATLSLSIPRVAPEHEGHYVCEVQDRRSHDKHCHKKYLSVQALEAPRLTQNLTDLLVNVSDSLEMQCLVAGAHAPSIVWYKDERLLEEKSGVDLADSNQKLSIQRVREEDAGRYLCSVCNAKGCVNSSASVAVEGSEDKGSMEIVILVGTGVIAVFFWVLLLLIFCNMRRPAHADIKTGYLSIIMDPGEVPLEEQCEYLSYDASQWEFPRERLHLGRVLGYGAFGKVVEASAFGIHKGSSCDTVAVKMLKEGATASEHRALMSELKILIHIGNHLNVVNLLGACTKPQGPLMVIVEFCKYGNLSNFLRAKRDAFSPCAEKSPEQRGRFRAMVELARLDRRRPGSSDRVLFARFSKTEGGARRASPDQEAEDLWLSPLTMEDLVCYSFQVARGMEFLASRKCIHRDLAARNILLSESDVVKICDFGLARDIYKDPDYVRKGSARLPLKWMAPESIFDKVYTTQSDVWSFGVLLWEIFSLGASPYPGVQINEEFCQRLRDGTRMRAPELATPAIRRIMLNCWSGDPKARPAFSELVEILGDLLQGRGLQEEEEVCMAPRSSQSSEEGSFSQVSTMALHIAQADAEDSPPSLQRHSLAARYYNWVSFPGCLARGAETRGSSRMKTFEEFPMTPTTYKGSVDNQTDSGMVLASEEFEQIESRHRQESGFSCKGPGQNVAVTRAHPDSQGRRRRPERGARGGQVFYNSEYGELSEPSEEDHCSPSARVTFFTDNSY

Assay [1] addresses VEGFR3 cytoplasmic domain (Homo sapiens, UniProt P35916). Put plainly: VEGFR3 Biochemical assay (AlphaScreen). The note with it: N-terminal GST-fusion enzyme, 500 μM ATP, 90 minutes at 30 degree Celsius (modified form: Hexa-His-fusion, 1 μM ATP).
Assay [2] deals with VEGFR3 (Homo sapiens (Human), UniProt P35916). Put plainly: VEGFR3 Phospho ELISA assay. In kind it is cell-based. The conditions noted are these: HMVEC-dLyAD cells, treated 1 hour, VEGFC stimulated; phospho VEGFR3 relative to Total VEGFR3. In general terms: An ELISA detects its analyte on a solid surface through an enzyme-linked reagent.

In general, IC50 refers to the concentration that gives 50% inhibition.

Regarding `CC(C(N)=O)c1ccccc1CCc1nc(Nc2cnn(C3CCNCC3)c2)ncc1C(F)(F)F` (racemic) [Compound 56, 2-(2-(2-(2-((1-(piperidin-4-yl)-1H-pyrazol-4-yl)amino)-5-(trifluoromethyl)pyrimidin-4-yl)ethyl)phenyl)propanamide], the IC50 in assay [1] turned out to be 27 nM; in assay [2], 68 nM.
